Compounds with a hit are over-represented: about 0.72% of the library has one in this group of screens.
RXFP1 antagonist: antagonists of human relaxin receptor RXFP1. HEK293-RXFP1, relaxin-stimulated cAMP HTRF, 30 min; active compounds read low. activity change, negative = inhibition, % at 57.5 µM. 350,000 compounds, 0.59% hits. AID 1259400;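 active = activity change of -60% or lower, but not beyond a set lower limit; inconclusive = change between -60% and -40%, or beyond the set limit; inactive = change above -40%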; note: % is set by controls: 0 for no effect and ±100 for the full control effect
RXFP1 agonist: agonists of human relaxin receptor RXFP1. Q9HBX9. HEK293T-RXFP1 cAMP TR-FRET, 30 min; response scale: percent of porcine relaxin response, buffer zero. Potency, µM (doses to about 57.5 µM), inactives show top-dose activation, actives largely listed as activators. 370,000 compounds, 0.3% hits. AID 2676; note: potency is the fitted concentration of half-maximal effect; % is set by controls: 0 for no effect and ±100 for the full control effect; nearly all actives have a fitted effect of over 60% in size
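cAMP rise read by TR-FRET after 30 min, 37C compound exposure (up to 58 uM) in RXFP1-transfected HEK293 cells with Ro 20174 present. EC50 from Hill-equation fits, with 29 nM porcine relaxin as 100% and buffer as basal.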
miR-21 reporter: miR-21 reporter, rising signal; HeLa miR-21 FLuc reporter, luciferase, 48 h; Potency, µM (titrated, usually from 38.3 µM), for the others: at the top dose reporter change, positive = more light; 340,000 tested, under 10 active; AID 2288; active = well fitted rising curve with a large enough effect; inconclusive = small, poorly fitted or top-dose-only effect; inactive = no such curve, though single readings can be large or run the other way;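 also: % of control where 0% means no effect; miR-21 action dims this reporter so a rising signal means less miR-21 action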
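HeLa miR-21-FLuc reporter line, endogenous miR-21; 2000 cells/well in DMEM/10% FBS; compound titration up to ~40uM final, 48 h, 37 degree Celsius; luciferase detection reagent, 15 min lysis, CCD luminescence.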
ASM inhibitor: inhibitors of human secretory acid sphingomyelinase; 340,000 compounds, 0.006% hits; placental ASM, HMU-PC fluorogenic substrate, 60 min; Potency, µM (highest dose often 57.5 µM), for the others: at the top dose activity change, negative = inhibition, usual class: inhibitors; P17405; note: potency is the fitted concentration of half-maximal effect
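HMU-PC0 cleavage (9 uM final) by human placental ASM, 60 min at 37 °C following 10 min compound exposure at RT; stopped at pH 10, fluorescence Ex 386/Em 447 nm.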
ERG-DNA inh: inhibitors of human ERG Ets domain-DNA interaction | P11308 | fluorescence polarization, His-ERG Ets domain / labelled DNA | Potency, µM (highest dose often 76.9 µM), inactives show at the highest dose FP activity, negative = inhibition, hits mostly inhibitors | 370,000 compounds, 0.028% hits | AID 624246; active = well fitted inhibition curve with a large enough effect in the polarisation, with a control signal flat; inconclusive = small, poorly fitted or top-dose-only effect, or effect the other way, or a change in a side signal; inactive = no such curve, though single readings can be large or run the other way; the % refers to the polarisation;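 note: polarization taken with two DNA probes labelled with fluorescein and Texas red; potency is the fitted concentration of half-maximal effect; % of control where 0% means no effect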
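His-tagged ERG Ets domain (1 uM in the protein solution; 300mM KCl, 50mM Tris-HCl, 1mM EDTA, 1mM DTT, pH 7.5) received compound, then a probe mix of 5 nM fluorescein-DNA and 100nM Texas-615-DNA. Fluorescence polarization was read for both dyes.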
Mito fusion yeast: blocks mitochondrial division or promotes mitochondrial fusion | S. cerevisiae fusion-defective mutant growth rescue, CellTiterGlo 48 h | Potency, µM (top dose mostly 46.1 µM), inactives show at the highest dose growth rescue (activation), usual class: activators | 320,000 compounds, 0.23% hits; note: potency is the fitted concentration of half-maximal effect; % of control where 0% means no effect; nearly all actives have a fitted effect of over 45% in size
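Compounds are tested for their ability to restore growth of mitochondrial fusion-defective yeast strains at non-permissive 37C in YPEG medium over 48 hours. Viability is quantified by luciferase luminescence.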
The depositor's hits bear a star. Unless noted, calls come from the whole dose curve; as a rule, active = well fitted curve in the direction sought with a large enough effect; inconclusive = small, poorly fitted or top-dose-only effect, or another doubt; inactive = no such curve, though single readings can be large; an effect the other way counts as inactive or inconclusive.

How did O=C(CSc1ncnc2nc[nH]c12)c1ccccc1 do in these assays?
RXFP1 antagonist: 5; RXFP1 agonist: 1%; miR-21 reporter: -39%; ASM inhibitor: 4%; ERG-DNA inh: -9%; Mito fusion yeast: 0%

What do the screens show for `c1ccc(CCSc2ncnc3nc[nH]c23)cc1`?
RXFP1 antagonist: -2; RXFP1 agonist: 2%; miR-21 reporter: -30%; ASM inhibitor: -1%; ERG-DNA inh: 4%; Mito fusion yeast: 18µM*

Results for O=C(NCCS(=O)(=O)N1CCN(c2ccc(F)cc2)CC1)c1cc(=O)c2ccccc2o1 ?
RXFP1 antagonist: -3; RXFP1 agonist: 2%; miR-21 reporter: 1%; ERG-DNA inh: -3%

What do the screens show for `O=C(OCc1ccccc1)c1cnc(Cl)c(Cl)c1`?
RXFP1 antagonist: -11; RXFP1 agonist: 8%; miR-21 reporter: 1%; ASM inhibitor: -1%; ERG-DNA inh: -6%; Mito fusion yeast: -13%

How did CC(C)N(Cc1ccccc1)C(=O)COC(=O)c1cc(S(=O)(=O)N(C)C)ccc1N1CCCC1 do in these assays?
RXFP1 antagonist: -75*; ASM inhibitor: 0%; ERG-DNA inh: 6%

What do the screens show for `CC(C)N(Cc1ccccc1)C(=O)COC(=O)c1cnc(Cl)c(Cl)c1`?
RXFP1 antagonist: -72*; ASM inhibitor: 0%; ERG-DNA inh: -1%

Results for CCOc1ccc(-c2cc(CCCC(=O)NCCc3cc(OC)c(OC)c(OC)c3)no2)cc1 ?
RXFP1 agonist: -2%; miR-21 reporter: inconclusive; ERG-DNA inh: 2%

Results for O=C(COC(=O)c1ncc(Cl)c(Cl)c1Cl)NC1CCCCCC1 ?
RXFP1 antagonist: -25; RXFP1 agonist: -1%; ASM inhibitor: -1%; ERG-DNA inh: 5%; Mito fusion yeast: -1%

Results for COc1cccc(CCNC(=O)c2c(O)nc3ccccn3c2=O)c1 ?
RXFP1 agonist: 12%; miR-21 reporter: -34%; ERG-DNA inh: -6%

What do the screens show for `CC1CCN(c2nnc(-n3cccc3CNc3cccc(F)c3)s2)CC1`?
RXFP1 agonist: -3%; miR-21 reporter: -30%; ERG-DNA inh: 1%

Results for Nc1nc(SC2c3cccc4cccc(c34)C2NS(=O)(=O)c2ccccc2)n[nH]1 (stereo unspecified) ?
RXFP1 antagonist: 15; RXFP1 agonist: 0%; miR-21 reporter: -1%; ASM inhibitor: -1%; ERG-DNA inh: -4%; Mito fusion yeast: -15%

Results for Cc1ccc(S(=O)(=O)NC2c3cccc4cccc(c34)C2Sc2ncccn2)cc1 (stereo unspecified) ?
RXFP1 antagonist: -10; RXFP1 agonist: 0%; miR-21 reporter: 18%; ASM inhibitor: -6%; ERG-DNA inh: 0%; Mito fusion yeast: 14µM*

Results for Cc1cc(C)nc(SC2c3cccc4cccc(c34)C2NS(=O)(=O)c2ccccc2)n1 (stereo unspecified) ?
RXFP1 antagonist: -18; RXFP1 agonist: 0%; miR-21 reporter: -4%; ASM inhibitor: -4%; ERG-DNA inh: 2%; Mito fusion yeast: 20µM*

Results for Cc1onc(-c2ccccc2)c1C(=O)N/N=C/c1ccco1 ?
RXFP1 antagonist: -6; RXFP1 agonist: 1%; miR-21 reporter: 1%; ASM inhibitor: 5%; ERG-DNA inh: 12%; Mito fusion yeast: -2%

What do the screens show for `Cc1onc(-c2ccccc2)c1C(=O)N/N=C/c1ccc([N+](=O)[O-])s1`?
RXFP1 antagonist: 3; RXFP1 agonist: 2%; miR-21 reporter: 14%; ASM inhibitor: -6%; Mito fusion yeast: 11µM*

How did CC(c1ccccc1)n1c(-c2cccs2)nc2c(c(=O)c3ccccc3n2C)c1=O (stereo unspecified) do in these assays?
RXFP1 antagonist: -4; RXFP1 agonist: 0%; miR-21 reporter: -3%; ASM inhibitor: -1%; ERG-DNA inh: 4%; Mito fusion yeast: 22µM*

How did Cn1c2ccccc2c(=O)c2c(=O)n(-c3ccc(F)cc3)c(-c3cccs3)nc21 do in these assays?
RXFP1 antagonist: -23; RXFP1 agonist: 0%; miR-21 reporter: -18%; ASM inhibitor: 8%; ERG-DNA inh: 9%; Mito fusion yeast: -1%

Results for Cc1cc(C)cc(OCC(=O)N2CCC(c3nc4ccccc4o3)CC2)c1 ?
RXFP1 antagonist: inconclusive; RXFP1 agonist: -3%; miR-21 reporter: -4%; ERG-DNA inh: 10%

Results for O=C1/C(=C2\C(=O)N(Cc3ccc(F)cc3)c3ccccc32)SC(=S)N1CCS(=O)(=O)O ?
RXFP1 antagonist: -72*; RXFP1 agonist: 0%; miR-21 reporter: 2%; ASM inhibitor: 1%; ERG-DNA inh: 4%; Mito fusion yeast: -1%

What do the screens show for `CCOc1ccccc1NC(=O)C(C)Sc1cc(-c2ccccc2)nc(C)n1` (stereo unspecified)?
RXFP1 antagonist: -29; RXFP1 agonist: 4%; miR-21 reporter: 0%; ERG-DNA inh: 0%

How did Cc1nc(SC(C)C(=O)Nc2ccccc2Cl)cc(-c2ccccc2)n1 (stereo unspecified) do in these assays?
RXFP1 antagonist: -72*; RXFP1 agonist: -2%; miR-21 reporter: 18%; ERG-DNA inh: 3%

What do the screens show for `Clc1ccc(C(Cn2ccnc2)OCc2ccc(Sc3ccccc3)cc2)c(Cl)c1` (stereo unspecified)?
RXFP1 antagonist: -9

How did O=C(CO)[C@@H](O)[C@H](O)[C@@H](O)CO do in these assays?
RXFP1 antagonist: -3

How did c1ccc(CC(Nc2ccccn2)c2ccccc2)cc1 (stereo unspecified) do in these assays?
RXFP1 antagonist: -60*; RXFP1 agonist: 0%; miR-21 reporter: -2%; ASM inhibitor: 0%; ERG-DNA inh: 1%; Mito fusion yeast: -2%

How did c1ccc(CC(Cc2ccccc2)c2ccccn2)cc1 do in these assays?
RXFP1 antagonist: -13; ASM inhibitor: -2%; ERG-DNA inh: 9%

Results for Cc1cc(OC(C)C(=O)N2CCC(c3nc4ccccc4o3)CC2)ccc1Cl (stereo unspecified) ?
RXFP1 antagonist: -62*; RXFP1 agonist: -1%; miR-21 reporter: 12%; ERG-DNA inh: -2%

What do the screens show for `COc1ccc(C(=O)NC2CCCc3c2cnn3-c2cc(F)cc(F)c2)c(OC)c1OC` (stereo unspecified)?
RXFP1 antagonist: 2; RXFP1 agonist: 2%; miR-21 reporter: 22%; ASM inhibitor: 4%; ERG-DNA inh: 3%; Mito fusion yeast: 11µM*

3 neighbouring records from above:
Results for Cc1cc(C)nc(SC2c3cccc4cccc(c34)C2NS(=O)(=O)c2ccccc2)n1 (stereo unspecified) ?
RXFP1 antagonist: -18; RXFP1 agonist: 0%; miR-21 reporter: -4%; ASM inhibitor: -4%; ERG-DNA inh: 2%; Mito fusion yeast: 20µM*

Results for Cc1onc(-c2ccccc2)c1C(=O)N/N=C/c1ccco1 ?
RXFP1 antagonist: -6; RXFP1 agonist: 1%; miR-21 reporter: 1%; ASM inhibitor: 5%; ERG-DNA inh: 12%; Mito fusion yeast: -2%

What do the screens show for `Cc1onc(-c2ccccc2)c1C(=O)N/N=C/c1ccc([N+](=O)[O-])s1`?
RXFP1 antagonist: 3; RXFP1 agonist: 2%; miR-21 reporter: 14%; ASM inhibitor: -6%; Mito fusion yeast: 11µM*
